Read-outs that look alike come from different tables or passages of the source.
Test system: Kunming mice
Details: single i.p.
[1] = 50% male 50% female mice, 122.9 mg/kg
[2] = 50% male 50% female mice, 153.6 mg/kg
[3] = 50% male 50% female mice, 192 mg/kg
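Also: acute toxicity in Kunming mice grouped by sex, one intraperitoneal dose at five graded levels in Tween-80 plus 0.5% CMC-Na, deaths monitored over two weeks.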

**Q.** OCc1cc2c3ccccc3n(Cc3ccccc3)c2cn1 [Compound 42, 9-benzyl-3-hydroxymethyl-β-carboline] was tested. Which Death rate [1] did it give?
**A.** 0

**Q.** What about the Death rate [2] of the same compound?
**A.** 0

**Q.** What about the Death rate (female mice, 122.9 mg/kg) of the same compound?
**A.** 0

**Q.** What about the Death rate (female mice, 153.6 mg/kg) of the same compound?
**A.** 0

**Q.** What about the Death rate (male mice, 122.9 mg/kg) of the same compound?
**A.** 0

**Q.** And the Death rate (male mice, 153.6 mg/kg)?
**A.** 0

**Q.** And the Death rate (male mice, 192 mg/kg)?
**A.** 0

**Q.** Which results are given for O=C(O)c1cc2c3ccccc3n(CCCc3ccccc3)c2cn1 [Compound 48, 9-phenylpropyl-β-carboline-3-carboxylic acid]?
**A.** Death rate [1]: 0; Death rate [2]: 0; Death rate (female mice, 122.9 mg/kg): 0; Death rate (female mice, 153.6 mg/kg): 0; Death rate (female mice, 192 mg/kg): 40; Death rate (male mice, 122.9 mg/kg): 0; Death rate (male mice, 153.6 mg/kg): 0; Death rate (male mice, 192 mg/kg): 20

**Q.** O=C(O)c1cc2c3ccccc3n(Cc3ccccc3)c2cn1 [Compound 37, 9-benzyl-β-carboline-3-carboxylic acid] was tested. Which Death rate [1] did it give?
**A.** 10

**Q.** What about the Death rate [3] of the same compound?
**A.** 70

**Q.** And the Death rate (female mice, 122.9 mg/kg)?
**A.** 10

**Q.** And the Death rate (female mice, 192 mg/kg)?
**A.** 80

**Q.** And the Death rate (male mice, 122.9 mg/kg)?
**A.** 0

**Q.** What about the Death rate (male mice, 192 mg/kg) of the same compound?
**A.** 60

**Q.** CCCCn1c2ccccc2c2cc(C(=O)O)ncc21 [Compound 36, 9-butyl-β-carboline-3-carboxylic acid] was tested. Which Death rate [1] did it give?
**A.** 0

**Q.** What about the Death rate [2] of the same compound?
**A.** 0

**Q.** And the Death rate [3]?
**A.** 0

**Q.** What about the Death rate (female mice, 122.9 mg/kg) of the same compound?
**A.** 0

**Q.** What about the Death rate (female mice, 153.6 mg/kg) of the same compound?
**A.** 0

**Q.** And the Death rate (female mice, 192 mg/kg)?
**A.** 0

**Q.** And the Death rate (male mice, 122.9 mg/kg)?
**A.** 0

**Q.** What about the Death rate (male mice, 153.6 mg/kg) of the same compound?
**A.** 0

**Q.** And the Death rate (male mice, 192 mg/kg)?
**A.** 0

**Q.** For COC(=O)c1cc2c([nH]c3ccccc32)c(-c2ccc(O)cc2)n1 [Compound 16, methyl 1-(4-hydroxyphenyl)-β-carboline-3-carboxylate], which Death rate [1] is on record?
**A.** 0

**Q.** What about the Death rate [2] of the same compound?
**A.** 0

**Q.** What about the Death rate [3] of the same compound?
**A.** 0

**Q.** What about the Death rate (female mice, 122.9 mg/kg) of the same compound?
**A.** 0

**Q.** What about the Death rate (female mice, 153.6 mg/kg) of the same compound?
**A.** 0

**Q.** What about the Death rate (female mice, 192 mg/kg) of the same compound?
**A.** 0

**Q.** What about the Death rate (male mice, 122.9 mg/kg) of the same compound?
**A.** 0

**Q.** What about the Death rate (male mice, 153.6 mg/kg) of the same compound?
**A.** 0

**Q.** And the Death rate (male mice, 192 mg/kg)?
**A.** 0

**Q.** What does the source list for CCOC(=O)Nc1cc2c3ccccc3n(Cc3ccccc3)c2cn1 [Compound 55, 3-[(ethoxycarbonyl)amino]-9-benzyl-β-carboline]?
**A.** Death rate [1]: 0; Death rate [2]: 0; Death rate [3]: 0; Death rate (female mice, 122.9 mg/kg): 0; Death rate (female mice, 153.6 mg/kg): 0; Death rate (female mice, 192 mg/kg): 0; Death rate (male mice, 122.9 mg/kg): 0; Death rate (male mice, 153.6 mg/kg): 0; Death rate (male mice, 192 mg/kg): 0

**Q.** Which results are given for c1ccc(Cn2c3ccccc3c3ccncc32)cc1 [Compound 84, 9-Benzyl-β-carboline]?
**A.** Death rate [1]: 0; Death rate [2]: 0; Death rate [3]: 0; Death rate (female mice, 122.9 mg/kg): 0; Death rate (female mice, 153.6 mg/kg): 0; Death rate (female mice, 192 mg/kg): 0; Death rate (male mice, 122.9 mg/kg): 0; Death rate (male mice, 153.6 mg/kg): 0; Death rate (male mice, 192 mg/kg): 0

**Q.** Which Death rate [1] does the source give for CCOC(=O)c1cc2c([nH]c3ccccc32)c(C)n1 [Compound 11, ethyl 1-methyl-β-carboline-3-carboxylate] here?
**A.** 0

**Q.** And the Death rate [2]?
**A.** 30

**Q.** What about the Death rate [3] of the same compound?
**A.** 50

**Q.** What about the Death rate (female mice, 122.9 mg/kg) of the same compound?
**A.** 0

**Q.** And the Death rate (male mice, 122.9 mg/kg)?
**A.** 0

**Q.** What about the Death rate (male mice, 153.6 mg/kg) of the same compound?
**A.** 20

**Q.** For CCOC(=O)c1cc2c3ccccc3n(Cc3ccccc3)c2cn1 [Compound 33, ethyl 9-benzyl-β-carboline-3-carboxylate], which Death rate [1] is on record?
**A.** 0

**Q.** What about the Death rate [2] of the same compound?
**A.** 0

**Q.** What about the Death rate [3] of the same compound?
**A.** 10

**Q.** And the Death rate (female mice, 122.9 mg/kg)?
**A.** 0

**Q.** What about the Death rate (female mice, 153.6 mg/kg) of the same compound?
**A.** 0

**Q.** What about the Death rate (male mice, 122.9 mg/kg) of the same compound?
**A.** 0

**Q.** And the Death rate (male mice, 153.6 mg/kg)?
**A.** 0

**Q.** What about the Death rate (male mice, 192 mg/kg) of the same compound?
**A.** 0
